Among the data in US20080233589A1 (WASHINGTON UNIVERSITY IN ST LOUIS, published 2008) are rapamycin-dependent induction (fold induction of bioluminescence) values, retold here.

This experiment addresses C-terminal fragment (residues 395-542) of click beetle green 99 luciferase fused to FKBP (Pyrophorus plagiophthalmus; human) (UniProt P62942). Put plainly: cell-based or functional assay.

Substance “FRB fused to the N-terminal fragment (residues 2-413) of click beetle green 99 luciferase (from UniProt P42345 2024-2113)” registered a rapamycin-dependent induction (fold induction of bioluminescence) of 75 fold.
